Source: patent US20200297862A1, “METHODS OF USING BISPECIFIC ANTIGEN-BINDING CONSTRUCTS TARGETING HER2” (Zymeworks Inc., priority 2016, published 2020)
Where two headings read alike, the source gives them in different places.

Experiments:
JIMT-1 cells [1] = assay: Whole cell loading and internalization (AlexaFluor 488 labelled antibody, flow cytometry); format: cell-based, human; conditions: 200 nM labelled antibody, Table 40; for Surface 4° C.: 2 h at 4° C.
SKOV3 cells [2] = assay: Growth inhibition of HER2+ cells (cell viability, AlamarBlue or Celltiter-Glo); format: cell-based, human; conditions: 300 nM antibody, 3 days
BT-474 cells [3] = assay: Growth inhibition of HER2+ cells (cell viability); format: cell-based, human; conditions: 200 nM antibody, 3 days; Table 11A
Experimental: The ability of an exemplary biparatopic anti-HER2 antibody to inhibit growth of cells expressing HER2 at the 3+ and 2+ level was measured. […] The ability of the biparatopic anti-HER2 antibodies to inhibit the growth of BT-474 cells (200 nM antibody); SKOV3, SKBr3 and JIMT-1 cells (300 nM antibody) was measured as described below.
Test antibodies were diluted in media and added to the cells at 10 μl/well in triplicate. The plates were incubated for 3 days 37° C. Cell viability was measured using either AlamarBlue™ (Biosource # dal1100), or Celltiter-Glo® and absorance read as per the manufacturer's instructions. Data was normalized to untreated control and analysis was performed in GraphPad prism.

SKBr3 cells = assay: Growth inhibition of HER2+ cells (cell viability); format: cell-based, human; conditions: 300 nM antibody, 3 days; Table 11B
MCF7 cells [4] = assay: Binding to HER2+ cells by flow cytometry (FACS): Bmax and apparent KD; set-up: species or system human; conditions: for Kd: apparent KD
Experimental: (§1) The following experiment was performed to measure the ability of an exemplary biparatopic anti-HER2 antibody to bind to cells expressing varying levels of HER2 in comparison to controls. […] The ability of the biparatopic anti-HER2 antibodies to bind to the HER2 expressing (HER2+) cells was determined as described below, with specific measurement of Bmax and apparent KD (equilibrium dissociation constant).
(§2) Binding of the test antibodies to the surface of HER2+ cells was determined by flow cytometry. Cells were washed with PBS and resuspended in DMEM at 1×10^5 cells/100 μl. 100 μl cell suspension was added into each microcentrifuge tube, followed by 10 μl/tube of the antibody variants. The tubes were incubated for 2 hr 4° C. on a rotator. The microcentrifuge tubes were centrifuged for 2 min 2000 RPM at room temperature and the cell pellets washed with 500 μl media. Each cell pellet was resuspended 100 μl of fluorochrome-labelled secondary antibody diluted in media to 2 μg/sample. The samples were then incubated for 1 hr at 4° C. on a rotator. After incubation, the cells were centrifuged for 2 min at 2000 rpm and washed in media. The cells were resuspended in 500 μl media, filtered in tube containing 5 μl propidium iodide (PI) and analyzed on a BD LSR II flow cytometer according to the manufacturer's instructions. The KD of exemplary biparatopic anti-HER2 heterodimer antibody and control antibodies were assessed by FACS with data analysis and curve fitting performed in GraphPad Prism.

JIMT-1 cells [5] = assay: as above; set-up: species or system human; conditions: for Kd: apparent KD
Experimental: as §1, §2

MCF7 cells [6] = assay: Whole cell loading and internalization (AlexaFluor 488 labelled antibody, flow cytometry); format: cell-based, human; conditions: 200 nM labelled antibody, Table 41; for Surface 4° C.: 2 h at 4° C.; for Internal 37° C. / Surface 37° C.: 24 h at 37° C.
SKOV3 xenograft [7] = assay: Human ovarian cancer cell xenograft model, antibody (Example 16); format: in vivo, athymic nude mice
WI-38 cells = assay: Binding to basal HER2 cells by flow cytometry (FACS); set-up: species or system human; conditions: Table 10, FIG. 6G
Experimental: as §2

JIMT-1 cells [8] = assay: Growth inhibition of HER2+ cells (cell viability); format: cell-based, human; conditions: 300 nM antibody, 3 days; Table 11B
BT-474 cells [9] = assay: Whole cell loading and internalization (AlexaFluor 488 labelled antibody, flow cytometry); format: cell-based, human; conditions: 200 nM labelled antibody, Table 39; for Surface 4° C.: 2 h at 4° C.; for Internal 37° C. / Surface 37° C.: 24 h at 37° C.
BT-474 cells [10] = assay: Growth inhibition in the presence or absence of exogenous ligands (EGF, HRG); format: cell-based, human
SKOV3 xenograft [11] = assay: Trastuzumab sensitive ovarian cancer xenograft, antibodies (Example 34); format: in vivo, athymic nude mice
HBCx-13B xenograft = assay: PDX model of HER2 positive breast cancer, v10553 (Example 53); format: in vivo, athymic nude mice
ST1616B/TDR xenograft = assay: PDX model of T-DM1 resistant HER2 overexpressing breast cancer (Example 55); format: in vivo, athymic nude mice
Experimental: ST1616B/TDR was derived from a metastatic lung biopsy of a patient with breast carcinoma after receiving T-DM1 treatment. ST1616B/TDR overexpresses HER2/ERBB2 (HER2 3+) and is resistant to T-DM1.
To compare growth rates between treatment groups, a linear mixed-effect model was fit to log transformed tumor volumes over time. Two-sided t-test of tumor growth rate parameters was performed to assess differences in growth rate between treatment groups, and the resulting p-values were adjusted for multiple tests using the Holm-Bonferroni procedure. Adjusted p-values below 0.05 were considered statistically significant.

OVXF1320 xenograft = assay: PDX model of HER2 positive ovarian cancer (Example 54); format: in vivo, athymic nude mice
SKOV3 cells [12] = assay: ADCC (LDH release); format: cell-based, human

Substance | Surface 4° C. (JIMT-1 cells [1]) | Internal 37° C. (JIMT-1 cells [1]; 24 h at 37° C.) | % Survival SKBr3 HER2 3+ (SKBr3 cells) | Bmax (MCF7 cells [4]; Table 8, FIG. 6F) | Bmax (MCF7 cells [4]; Table 37) | Kd (MCF7 cells [4]; Table 8, FIG. 6F) | Kd (MCF7 cells [4]; Table 37) | Bmax (JIMT-1 cells [5]; Table 36) | Kd (JIMT-1 cells [5]; Table 36) | Surface 4° C. (MCF7 cells [6]) | Internal 37° C. (MCF7 cells [6]) | Surface 37° C. (MCF7 cells [6]) | Bmax (WI-38 cells) | % Survival JIMT-1 HER2 2+ (JIMT-1 cells [8]) | Surface 4° C. (BT-474 cells [9]) | Internal 37° C. (BT-474 cells [9]) | Surface 37° C. (BT-474 cells [9]) | % Survival +EGF (BT-474 cells [10]; Table 46) | % Survival +HRG (BT-474 cells [10]; Table 46) | % Survival Antibody only (BT-474 cells [10]; Table 46) | other results
v506: wild-type anti HER2 produced in-house in CHO cells, trastuzumab analog, homodimeric Fc [reference compound] | 337 | 759 | 52% | 571 | 889 | 3.5 nM | 12 nM | 2574 | 3.5 nM | 48 | 48 | 10 | ~366 | 107% | 2156 | 3453 | 1590 | 118% | 141% | 53% | Surface 37° C. (JIMT-1 cells [1]; 24 h at 37° C.): −7.1; % Survival SKOV3 HER2 2+/3+ (SKOV3 cells [2]; Table 11A): 88%; % Survival SKOV3 HER2 2+/3+ (SKOV3 cells [2]; Table 11B): 107%; % Survival BT-474 HER2 3+ (BT-474 cells [3]): 37%; Bmax (MCF7 cells [4]; Table 7, FIG. 6C): 542; Kd (MCF7 cells [4]; Table 7, FIG. 6C): 1.3 nM; Bmax (JIMT-1 cells [5]; Table 6, FIG. 6B): 4905; Kd (JIMT-1 cells [5]; Table 6, FIG. 6B): 1.88 nM; % TGI (SKOV3 xenograft [7]; Day 22): 32%; Responders (TV < 50% of control) (SKOV3 xenograft [7]; Day 22): 5/15; Mean TV % change from Baseline (SKOV3 xenograft [7]; Day 22, n = 15): +486%; Mean TV (mm3) (SKOV3 xenograft [7]; Day 22, n = 15): 1291 mm3; Median Survival (SKOV3 xenograft [7]; mouse, in vivo): 36 days; % Survival +HRG (BT-474 cells [10]; 10 ng/mL HRG, 5 days, Table 26): 129%; % Survival +EGF (BT-474 cells [10]; 50 ng/mL EGF, 5 days, Table 26): 114%; % Survival Antibody only (BT-474 cells [10]; 5 days, Table 26): 41%
v7091: biparatopic anti-HER2 antibody, Fab-scFv: pertuzumab Fab chain A, trastuzumab scFv chain B, heterodimeric Fc | 426 | 935 | 35% | 918 | 1216 | 6.5 nM | 6.1 nM | 4456 | 14 nM | 77 | 87 | 27 | 371 | 85% | 2759 | 5111 | 2227 | 61% | 119% | 61% | Kd (WI-38 cells; apparent KD): 8.3 nM; Mean TV % change from Baseline (SKOV3 xenograft [11]; Day 29): +618%; PR (>10% baseline regression) (SKOV3 xenograft [11]; Day 29): 0/11; Responders (TV < 50% of control) (SKOV3 xenograft [11]; Day 29): 4/11; ZRD (TV < 20 mm3) (SKOV3 xenograft [11]; Day 29): 0/11; Mean TV (mm3) (SKOV3 xenograft [11]; Day 29, antibodies 3 mg/kg, IgG 10 mg/kg IV twice per week): 1354 mm3; Median Survival (SKOV3 xenograft [11]; mouse, in vivo): 37 days; Time to progression: Tumor doubling time (SKOV3 xenograft [11]; mouse, in vivo): 16 days
ado trastuzumab emtansine [v7155, reference compound] | – | – | – | – | – | – | – | – | – | – | – | – | – | – | – | – | – | – | – | – | Tumor Growth Inhibition (HBCx-13B xenograft; 3 mg/kg iv Day 1 and Day 15, vs vehicle): 62.6%; 3D RECIST Scores CR (≤−95% of baseline) (HBCx-13B xenograft; 3 mg/kg iv, day 32): 0/15; 3D RECIST Scores PR (−95% and <−66% of baseline) (HBCx-13B xenograft; 3 mg/kg iv, day 32): 0/15; 3D RECIST Scores SD (≥−66% and ≤+73% of baseline) (HBCx-13B xenograft; 3 mg/kg iv, day 32): 0/15; Tumor Growth Rate Inhibition vs v12470 (ST1616B/TDR xenograft; 5 mg/kg iv Day 0, 7, 14, 21): −34.7%; reduction of growth rate compared to v12470 (ST1616B/TDR xenograft; mouse, in vivo): −34.7%; Tumor Growth Rate Inhibition vs v17891 (OVXF1320 xenograft; 5 mg/kg iv Day 1, 8, 15, 22): 64.9%; 3D RECIST Scores (day 53) CR (≤−95% of baseline) (OVXF1320 xenograft; 5 mg/kg iv, day 53): 0/10; 3D RECIST Scores (day 53) PD (>+73% of baseline) (OVXF1320 xenograft; 5 mg/kg iv, day 53): 6/10
v792: wild-type trastuzumab with IgG1 hinge and heterodimeric Fc, trastuzumab analog | – | – | – | – | – | – | – | – | – | – | – | – | – | – | – | – | – | – | – | – | % Max Cell Lysis (SKOV3 cells [12]; E:T 1:1, Table 14): 7.529%; EC50 (SKOV3 cells [12]; E:T 1:1, Table 14, read-out: EC50): 1.43 nM; % Max Cell Lysis (SKOV3 cells [12]; E:T 3:1, Table 13): 16.9%; EC50 (SKOV3 cells [12]; E:T 3:1, Table 13, read-out: EC50): 1.06 nM; % Max Cell Lysis (SKOV3 cells [12]; E:T 5:1, Table 12): 17.82%; EC50 (SKOV3 cells [12]; E:T 5:1, Table 12, read-out: EC50): ~0.032 nM
